Values of other authors, collected in patent US4767764A, “Alkoxyalkyl and alkylmercaptoalkyl substituted bridged benzofuroisoquinolines having opioid antagonist and/or appetite-controlling properties” (E. I. Du Pont de Nemours and Company, priority 1986, dated 1988).

Test system: μ (mu), κ (kappa) and δ (delta) opioid receptors
Conditions: established opioid antagonists; cited from earlier work

Question: For `C=CCN1CC[C@]23c4c5ccc(O)c4O[C@H]2C(=O)CC[C@@]3(O)[C@H]1C5` [Naloxone, naloxone], which “opioid receptor binding in words” value is on record?
Answer: bind to all three types of receptors, with greatest affinity for the mu receptor
